Experiments:
[1] = PK study of the 12 alkaloids in rat plasma after oral administration of ZJ and FZJ extract (LC–MS/MS); format: in vivo; conditions: for AUC0→t / AUC0→∞ / Cmax / Csec (drug concentration of the secondary peak in C–T curve) / MRT0→t / MRT0→∞ / t1/2: mean ± SD, n = 6
Description: The time schedule included 15 time-points and six rats were sampled at each time-point. All the rats were orally administered with ZJ extract (suspended in water) at a dose of 3.38 g/kg body weight (dosages of the 12 alkaloids were shown in Table S4), equivalent to crude drug dose of 12 g/kg body weight. Blood samples were collected from the suborbital vein of the rats at 10, 20, 30, 60, 90, 120, 180, 240, 300, 330, 360, 480, 720, 1440, 2160 min after administration, and centrifuged immediately at 5000 rpm for 10 min. The plasma samples were stored at −20 °C until analysis.
Similarly, the time schedule of other rats included 15 time-points and six rats were orally administered with FZJ extract at a dose of 3.76 g/kg body weight (also equivalent to crude drug dose of 12 g/kg body weight, Table S4). Blood samples were collected and treated as mentioned above in the PK study of ZJ extract.
PK parameters of the 12 alkaloids including AUC0→t, AUC0→∞, mean retention time (MRT0→t, MRT0→∞), and elimination half-life (t1/2) were calculated with non-compartmental method by DAS 2.0 software (Mathematical Pharmacology Professional Committee of China, Shanghai, China). Maximum plasma drug concentration (Cmax) and time to reach the maximum plasma drug concentration (Tmax) were observed directly from the detected C–T data. The results were expressed as arithmetic mean ± standard deviation (SD).

[2] = Stability of analytes in rat plasma under storage conditions; format: physicochemical; conditions: n = 6; for Stability RE, 3 freeze-thaw cycles / Stability RE, 30 days at −20 °C: rat plasma; for Stability RE, processed samples' stability: room temperature 24 h
Description: The stabilities of analytes in plasma were assessed by analyzing the QC samples at three concentration levels under the following storage conditions: after three freeze (−20 °C)-thaw (room temperature) cycles; stored at −20 °C for 30 days, and comparing the results with those of freshly prepared QC samples. Stabilities of the processed samples at room temperature for 24 h were also assessed.

[3] = Two-compartment model fitting of C–T curves (DAS 2.0); format: in vivo, rat
Description: Double peaks in C–T curves were observed repeatedly in the PK study of ZJ and related TCM prescriptions, but explanations to the phenomenon were still ambiguous. Generally, possible reasons for the double peak phenomenon could be summarized as follows: (a) enterohepatic circulation; […] (c) irregular pattern of gastric emptying. […] Moreover, Tmax of the alkaloids after administration of ZJ extract were deferred from that of FZJ administration. […] It probably play a major role in the double peak phenomenon, since the GI motility can affect the drug absorption.

[4] = test system: Caco-2 cell monolayer; conditions: cited from earlier work
[5] = Dose modified systemic exposure (AUC0→∞/D, Cmax/D)
Description: Because the alkaloids content in ZJ and FZJ were no longer linear with the proportion of CR and EF after extraction process, AUC0→∞/D (ratio of AUC0→∞ and dose) and Cmax/D (ratio of Cmax and dose) were calculated to estimate the dose modified systemic exposure levels of the 12 alkaloids (Table 3). […] Physicochemical properties of these alkaloids had been calculated in silico to predict their human colon adenocarcinoma cell (Caco-2) permeability according to the three-property based rule (3PRule). Polar surface area (PSA), logarithm of the n-octanol/water distribution coefficient (LogD), molecular weight (MW), hydrogen bond donors (HBD), hydrogen bond acceptors (HBA), number of free rotatable bonds (NRB) and molar solubility (S) of the alkaloids were retrieved from SciFinder® (American Chemical Society).

evodiamine
Tmax ([1]; oral FZJ extract): 0.5 h | Tsec (time of the secondary peak in C–T curve) ([1]; oral FZJ extract): 180 min | AUC0→t ([1]; oral FZJ extract): 10.83 ± 1.77 ng·h/mL | AUC0→∞ ([1]; oral FZJ extract): 11.72 ± 2.06 ng·h/mL | Cmax ([1]; oral FZJ extract): 9.10 ± 4.79 ng/mL | Csec (drug concentration of the secondary peak in C–T curve) ([1]; oral FZJ extract): 2.21 ± 0.85 ng/mL | MRT0→t ([1]; oral FZJ extract): 2.9718 ± 0.381 h | MRT0→∞ ([1]; oral FZJ extract): 4.2445 ± 0.7018 h | t1/2 ([1]; oral FZJ extract): 3.798 ± 1.05 h | Tmax ([1]; oral ZJ extract): 1 h | Tsec (time of the secondary peak in C–T curve) ([1]; oral ZJ extract): 300 min | AUC0→t ([1]; oral ZJ extract): 31.71 ± 2.94 ng·h/mL | AUC0→∞ ([1]; oral ZJ extract): 31.84 ± 3.11 ng·h/mL | Cmax ([1]; oral ZJ extract): 9.59 ± 4.22 ng/mL | Csec (drug concentration of the secondary peak in C–T curve) ([1]; oral ZJ extract): 5.54 ± 3.14 ng/mL | MRT0→t ([1]; oral ZJ extract): 5.2532 ± 0.747 h | MRT0→∞ ([1]; oral ZJ extract): 5.9967 ± 0.761 h | t1/2 ([1]; oral ZJ extract): 2.3552 ± 1.194 h | Stability RE, 3 freeze-thaw cycles ([2]; high QC concentration): 14.57% | Stability RE, 30 days at −20 °C ([2]; high QC concentration): 12.86% | Stability RE, 3 freeze-thaw cycles ([2]; low QC concentration): 6.06% | Stability RE, 30 days at −20 °C ([2]; low QC concentration): −6.27% | Stability RE, 3 freeze-thaw cycles ([2]; medium QC concentration): −2.19% | Stability RE, 30 days at −20 °C ([2]; medium QC concentration): −9.8% | Stability RE, processed samples' stability ([2]; high QC concentration): 2.87% | Stability RE, processed samples' stability ([2]; low QC concentration): 1.14% | Stability RE, processed samples' stability ([2]; medium QC concentration): −6.55% | AIC (Akaike's information criterion method), two-compartment model fitting ([3]; oral FZJ extract): 30.067 ± 6.112 | r^2 (correlation coefficient method), two-compartment model fitting ([3]; oral FZJ extract): 0.853 ± 0.232 | AIC (Akaike's information criterion method), two-compartment model fitting ([3]; oral ZJ extract): 71.547 ± 6.327 | r^2 (correlation coefficient method), two-compartment model fitting ([3]; oral ZJ extract): 0.428 ± 0.169 | Papp [4]: 23.2 ×10⁻⁶ cm/s | AUC0→∞/D (ratio of AUC0→∞ and dose) ([5]; oral FZJ extract): 3.73 | Cmax/D (ratio of Cmax and dose) ([5]; oral FZJ extract): 2.89 | AUC0→∞/D (ratio of AUC0→∞ and dose) ([5]; oral ZJ extract): 8.55 | Cmax/D (ratio of Cmax and dose) ([5]; oral ZJ extract): 2.57

— PMC6155683, “Pharmacokinetics Studies of 12 Alkaloids in Rat Plasma after Oral Administration of Zuojin and Fan-Zuojin Formulas” (Molecules : A Journal of Synthetic Chemistry and Natural …, 2017)
